The experiment concerns MCF-7 cells. The experiment in a line: Inhibition of apoptosis in transfected MCF-7 cells. Particulars: apoptosis induced by UV, Fas agonist antibody, TRAIL, or overexpression of DR4 and DR5, FIG. 17. It counts as cell-based. The source says: To express the caspases or truncated Apaf-1 in mammalian cells and assay their apoptotic activity, they were amplified with the T7-tag primer and reverse primers using the pET28a constructs as templates, and subcloned into the mammalian double expression vector pRSC-LacZ (MacFarlane et al., J. Biol. Chem., 272:25417-25420, 1997; Tsang et al., Bio/Technology, 22:68, 1997) or as previously described (Li et al., Cell 91:479-489, 1997; Srinivasula et al., J. Biol. Chem., 272:18452-18545, 1997). This vector allows the expression of lacZ under the Rous Sarcoma virus promoter, and the test cDNA under the CMV promoter. To assay for apoptosis, MCF-7 or 293 cells were transfected, using the method commercially available as the Lipofect Amine method (Life Technologies, Inc.), with the pRSC-LacZ constructs in the presence or absence of different apoptosis-inhibitors. 30 h after transfection cells were stained with β-galactosidase and examined for morphological signs of apoptosis. The percentage of round blue apoptotic cells (mean±SD) were determined by phase contrast microscopy and then represented as a function of total blue cells under each condition (n≧3). […]

Take “X-IAP: X-linked Inhibitor of Apoptosis Protein [reference compound]”: the inhibition of apoptosis result was “inhibition”.

Source of the values: US6403765B1, “Truncated Apaf-1 and methods of use thereof” (Thomas Jefferson University, priority 1998, dated 2002).
